Consider one molecule from PubChem BioAssay AID493162 (ICCB-Longwood Screening Facility, Harvard Medical School, 2011).

The list shows a part of the results, in another mix than the full data. The source made the active and inactive calls. Cut-off read from the data, not from the text of the source: active = normalized absorbance mostly below about 85% (no sharp cut-off); inactive = mostly above about 86%.

This experiment deals with Vaccinia virus DNA polymerase (E9) processive complex. The experiment can be described thus: vaccinia E9 polymerase processive synthesis inhibitors, primary screen, biochemical, absorbance (AID 493162). As to conditions: in vitro processive DNA synthesis, absorbance read-out; active compounds read low; concentration not given here.
As for `CN(CCCl)CCCl`, the normalized absorbance is inactive: 99.3%.
